Patent US10010560B2, “Small molecule HSP70 inhibitors” (THE TRUSTEES OF THE UNIVERSITY OF PENNSYLVANIA, priority 2014, dated 2018)

Chains of the proteins cited; added tags and fusions are not shown.
UniProt P0DMV8, whole entry E110D: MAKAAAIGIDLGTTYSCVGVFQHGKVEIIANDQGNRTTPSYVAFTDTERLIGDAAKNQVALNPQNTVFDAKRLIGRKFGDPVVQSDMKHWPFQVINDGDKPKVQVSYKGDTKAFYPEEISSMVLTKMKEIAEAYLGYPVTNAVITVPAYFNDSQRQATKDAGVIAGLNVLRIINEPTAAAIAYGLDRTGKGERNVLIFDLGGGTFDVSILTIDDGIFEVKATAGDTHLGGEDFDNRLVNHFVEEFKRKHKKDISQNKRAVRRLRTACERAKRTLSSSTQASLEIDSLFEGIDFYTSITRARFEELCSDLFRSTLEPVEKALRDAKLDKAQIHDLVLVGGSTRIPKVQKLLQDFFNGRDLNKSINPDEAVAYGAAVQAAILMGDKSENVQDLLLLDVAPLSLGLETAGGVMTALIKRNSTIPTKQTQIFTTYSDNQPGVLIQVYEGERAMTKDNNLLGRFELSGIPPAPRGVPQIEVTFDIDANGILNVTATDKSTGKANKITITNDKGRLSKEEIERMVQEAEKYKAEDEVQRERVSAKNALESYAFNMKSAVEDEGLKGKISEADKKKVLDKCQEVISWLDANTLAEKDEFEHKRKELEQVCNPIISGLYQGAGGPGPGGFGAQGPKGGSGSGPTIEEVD
UniProt P0DMV8, whole entry E110D/D506A: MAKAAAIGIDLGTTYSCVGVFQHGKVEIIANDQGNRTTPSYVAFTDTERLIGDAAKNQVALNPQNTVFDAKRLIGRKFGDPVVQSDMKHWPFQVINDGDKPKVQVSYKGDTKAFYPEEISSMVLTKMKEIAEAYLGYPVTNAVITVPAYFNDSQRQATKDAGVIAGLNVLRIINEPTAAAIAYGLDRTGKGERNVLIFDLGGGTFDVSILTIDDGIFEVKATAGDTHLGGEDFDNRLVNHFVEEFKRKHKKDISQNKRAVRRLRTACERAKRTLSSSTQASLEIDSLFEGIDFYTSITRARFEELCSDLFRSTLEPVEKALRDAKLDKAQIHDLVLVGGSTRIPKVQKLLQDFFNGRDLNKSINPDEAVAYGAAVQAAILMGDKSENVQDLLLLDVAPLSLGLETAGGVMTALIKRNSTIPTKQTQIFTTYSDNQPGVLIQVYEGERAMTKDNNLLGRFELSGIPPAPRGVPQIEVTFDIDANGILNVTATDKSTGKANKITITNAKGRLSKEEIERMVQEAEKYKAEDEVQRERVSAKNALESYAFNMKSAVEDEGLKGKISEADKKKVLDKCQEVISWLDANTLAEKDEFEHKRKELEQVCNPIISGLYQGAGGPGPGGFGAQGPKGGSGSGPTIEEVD
UniProt P0DMV8, whole entry E110D/G484D: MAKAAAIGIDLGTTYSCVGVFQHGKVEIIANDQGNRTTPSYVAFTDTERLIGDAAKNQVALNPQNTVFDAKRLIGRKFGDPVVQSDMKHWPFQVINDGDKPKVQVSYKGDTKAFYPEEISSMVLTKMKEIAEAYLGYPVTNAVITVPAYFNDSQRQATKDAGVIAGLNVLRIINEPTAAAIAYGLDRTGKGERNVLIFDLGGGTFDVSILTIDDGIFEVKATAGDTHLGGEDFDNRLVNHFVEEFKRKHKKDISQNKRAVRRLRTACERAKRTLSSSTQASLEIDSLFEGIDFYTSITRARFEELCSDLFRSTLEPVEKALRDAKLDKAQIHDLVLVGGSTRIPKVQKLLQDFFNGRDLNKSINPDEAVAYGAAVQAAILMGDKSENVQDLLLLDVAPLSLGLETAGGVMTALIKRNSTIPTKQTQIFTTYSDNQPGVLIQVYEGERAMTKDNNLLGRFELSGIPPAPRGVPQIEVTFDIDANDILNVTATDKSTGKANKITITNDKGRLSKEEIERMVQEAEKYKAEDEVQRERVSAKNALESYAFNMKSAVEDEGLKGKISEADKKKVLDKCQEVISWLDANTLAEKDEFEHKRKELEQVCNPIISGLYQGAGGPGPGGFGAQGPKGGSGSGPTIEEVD
UniProt P0DMV8, whole entry E110D/L394D: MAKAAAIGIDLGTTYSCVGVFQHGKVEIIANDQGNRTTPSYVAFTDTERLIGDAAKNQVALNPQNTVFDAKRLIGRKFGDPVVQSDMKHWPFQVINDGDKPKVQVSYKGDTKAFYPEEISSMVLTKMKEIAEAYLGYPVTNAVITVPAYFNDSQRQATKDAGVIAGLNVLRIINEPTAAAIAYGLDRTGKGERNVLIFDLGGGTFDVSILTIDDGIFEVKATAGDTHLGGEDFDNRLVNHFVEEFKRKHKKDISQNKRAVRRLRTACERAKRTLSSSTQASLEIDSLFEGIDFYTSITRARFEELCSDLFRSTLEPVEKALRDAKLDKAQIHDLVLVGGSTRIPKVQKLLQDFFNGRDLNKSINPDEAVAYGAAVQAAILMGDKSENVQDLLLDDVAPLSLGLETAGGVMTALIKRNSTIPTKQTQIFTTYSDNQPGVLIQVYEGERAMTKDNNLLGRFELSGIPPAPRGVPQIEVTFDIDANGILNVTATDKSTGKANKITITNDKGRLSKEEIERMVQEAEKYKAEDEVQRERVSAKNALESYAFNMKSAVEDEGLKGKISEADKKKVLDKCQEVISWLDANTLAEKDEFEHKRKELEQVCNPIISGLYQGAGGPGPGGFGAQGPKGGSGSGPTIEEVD
UniProt P0DMV8, whole entry E110D/L401R: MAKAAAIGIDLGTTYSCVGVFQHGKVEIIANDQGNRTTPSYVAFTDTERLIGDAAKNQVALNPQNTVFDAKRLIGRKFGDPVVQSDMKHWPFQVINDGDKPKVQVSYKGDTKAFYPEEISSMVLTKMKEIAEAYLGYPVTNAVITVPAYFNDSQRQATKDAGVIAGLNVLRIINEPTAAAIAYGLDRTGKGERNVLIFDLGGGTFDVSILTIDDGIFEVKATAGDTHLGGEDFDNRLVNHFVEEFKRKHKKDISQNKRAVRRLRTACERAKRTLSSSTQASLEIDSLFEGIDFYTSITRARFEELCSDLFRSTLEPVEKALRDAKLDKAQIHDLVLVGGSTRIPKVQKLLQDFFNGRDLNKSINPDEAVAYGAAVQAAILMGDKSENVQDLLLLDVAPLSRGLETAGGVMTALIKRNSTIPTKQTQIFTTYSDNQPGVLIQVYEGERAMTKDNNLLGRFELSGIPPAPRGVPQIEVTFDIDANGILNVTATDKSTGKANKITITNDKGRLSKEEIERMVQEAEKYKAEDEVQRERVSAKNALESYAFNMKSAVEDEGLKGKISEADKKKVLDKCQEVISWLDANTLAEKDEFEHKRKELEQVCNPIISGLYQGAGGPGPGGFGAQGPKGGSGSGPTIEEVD
UniProt P0DMV8, whole entry E110D/N505D: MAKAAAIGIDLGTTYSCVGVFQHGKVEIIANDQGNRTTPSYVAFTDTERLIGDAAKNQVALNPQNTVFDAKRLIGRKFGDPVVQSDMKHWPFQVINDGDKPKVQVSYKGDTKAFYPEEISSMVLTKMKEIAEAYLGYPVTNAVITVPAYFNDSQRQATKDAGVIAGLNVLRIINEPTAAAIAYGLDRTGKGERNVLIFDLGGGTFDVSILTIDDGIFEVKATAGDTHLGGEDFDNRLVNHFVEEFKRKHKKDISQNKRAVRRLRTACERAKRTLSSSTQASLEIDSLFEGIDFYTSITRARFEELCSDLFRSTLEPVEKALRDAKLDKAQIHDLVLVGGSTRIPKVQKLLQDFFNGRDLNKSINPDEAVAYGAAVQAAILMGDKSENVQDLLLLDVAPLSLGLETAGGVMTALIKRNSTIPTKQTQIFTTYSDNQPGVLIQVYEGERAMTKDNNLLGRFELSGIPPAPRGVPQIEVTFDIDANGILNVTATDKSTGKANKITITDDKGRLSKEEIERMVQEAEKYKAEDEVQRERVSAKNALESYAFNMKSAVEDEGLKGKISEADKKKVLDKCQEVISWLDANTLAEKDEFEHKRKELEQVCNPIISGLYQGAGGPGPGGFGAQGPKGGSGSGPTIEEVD
UniProt P0DMV8, whole entry E110D/P398L: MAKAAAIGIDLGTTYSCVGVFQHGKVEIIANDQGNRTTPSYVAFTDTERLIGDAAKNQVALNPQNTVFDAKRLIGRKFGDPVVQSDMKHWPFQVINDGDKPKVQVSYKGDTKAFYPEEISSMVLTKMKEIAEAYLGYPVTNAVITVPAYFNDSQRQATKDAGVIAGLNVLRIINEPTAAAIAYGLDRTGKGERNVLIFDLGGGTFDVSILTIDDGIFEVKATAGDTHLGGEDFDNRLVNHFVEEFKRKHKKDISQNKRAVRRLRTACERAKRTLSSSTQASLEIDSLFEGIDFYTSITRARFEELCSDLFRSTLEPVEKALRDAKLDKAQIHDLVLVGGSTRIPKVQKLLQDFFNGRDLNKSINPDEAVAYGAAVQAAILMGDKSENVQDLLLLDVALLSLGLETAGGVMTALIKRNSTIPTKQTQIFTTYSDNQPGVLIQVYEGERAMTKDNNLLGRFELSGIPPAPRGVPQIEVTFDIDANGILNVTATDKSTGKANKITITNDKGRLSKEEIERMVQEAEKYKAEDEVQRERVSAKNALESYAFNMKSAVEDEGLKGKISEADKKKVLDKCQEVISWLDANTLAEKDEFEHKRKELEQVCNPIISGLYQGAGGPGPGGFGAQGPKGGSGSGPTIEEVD
UniProt P0A6Y8, whole entry: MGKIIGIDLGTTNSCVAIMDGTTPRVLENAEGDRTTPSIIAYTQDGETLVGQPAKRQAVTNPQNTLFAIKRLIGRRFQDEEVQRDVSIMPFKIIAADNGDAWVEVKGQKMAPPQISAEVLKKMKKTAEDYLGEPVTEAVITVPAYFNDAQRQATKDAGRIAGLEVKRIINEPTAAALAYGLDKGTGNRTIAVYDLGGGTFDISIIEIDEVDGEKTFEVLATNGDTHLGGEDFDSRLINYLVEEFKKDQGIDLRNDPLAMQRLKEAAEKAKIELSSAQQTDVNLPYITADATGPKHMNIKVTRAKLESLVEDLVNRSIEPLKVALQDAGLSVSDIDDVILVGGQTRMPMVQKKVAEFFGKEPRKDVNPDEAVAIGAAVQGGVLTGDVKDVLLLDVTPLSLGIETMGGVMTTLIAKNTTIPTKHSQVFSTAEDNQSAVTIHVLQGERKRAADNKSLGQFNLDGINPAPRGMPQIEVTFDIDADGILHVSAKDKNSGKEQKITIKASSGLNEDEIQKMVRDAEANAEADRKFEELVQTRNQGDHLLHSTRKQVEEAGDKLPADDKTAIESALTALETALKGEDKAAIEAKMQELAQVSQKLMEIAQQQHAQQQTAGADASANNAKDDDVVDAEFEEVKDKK

Key:
[1] = biological target: ADP-HSP70 (WT, aa 1-641) (Homo sapiens, UniProt P0DMV8, E110D); experiment: ITC binding to ADP-bound full-length HSP70; conditions: for Kd: wild-type full-length ADP-bound HSP70, tested form: bromide
Text: (§1) The human stress-inducible HSP70 (residues 1-641 or 386-616 of SEQ ID NO: 2) and E. coli DnaK (residues 1-638, 389-607, or 393-507 of SEQ ID NO: 4) were cloned into the pET25 vector (EMD Millipore Chemicals, Inc., Billerica, Mass., USA) between the NdeI and XhoI restriction sites. The full-length HSP70 and DnaK mutants were constructed by PCR-based site-directed mutagenesis using the QuikChange™ Site-Directed Mutagenesis Kit (Agilent Technologies, Inc., Santa Clara, Calif., USA). All plasmid inserts were verified by DNA sequencing. All HSP70 and DnaK variants were produced with a N-terminal His6-tag in the E. coli BL21 Star (DE3) strain (Invitrogen catalog number C6010-03). The resulting strains were grown at 37° C. in LB medium containing 50 μg/mL of carbenicillin (Sigma-Aldrich Co., St. Louis, Mo., USA). At an OD600 about 0.3 to about 0.5, protein expression was induced with 0.5 mM isopropyl-β-D-thiogalactopyranoside (IPTG), and cells were subsequently grown at 25° C. for about 16 h. Cells were collected by centrifugation and resuspended in the Bugbuster® Master Mix (EMD Millipore Chemicals catalog number 71456-4), supplemented with protease inhibitors, 1 mM diethiothreitol (DTT) and 20 mM imidazole. The His6-tagged fusion proteins were isolated on Ni^2+-chelating resins (Ni-NTA Superflow, Qiagen catalog number 30410) by standard procedures. When necessary, size-exclusion chromatography on a Superdex® 200 or a Superose® 6 10/300 GL columns (GE Healthcare) analytical column pre-equilibrated with 1× Dulbecco's Phosphate Buffered Saline (DPBS—Invitrogen 14190-136), 1 mM Tris-HCl (pH 7.4) or 10 mM Tris-HCl (pH 7) was used as the final purification step. The purified DnaK proteins were dialyzed thoroughly against 1× DPBS with 5 mM DTT at 4° C., for crystallization trials involving the small molecule inhibitor PET-16. For isothermal titration calorimetry studies, all HSP70 and DnaK variants were dialyzed extensively against the buffers as noted below under the section entitled “Isothermal Titration calorimetry Studies”. […]

[2] = biological target: ADP-DnaK (WT, aa 1-638) (Escherichia coli, UniProt P0A6Y8); experiment: ITC binding to ADP-bound full-length DnaK; parameters: species or system E. coli; conditions: in words, tested form: bromide
[3] = biological target: ATP-HSP70 (WT) (Homo sapiens, UniProt P0DMV8, E110D); experiment: ITC binding to ATP-bound full-length HSP70; conditions: for Kd: wild-type full-length ATP-bound HSP70, tested form: bromide
Text: as §1

[4] = system: E. coli DH5α; experiment: Growth of E. coli DH5α at 43° C.; type: cell-based; conditions: 6 h at 43° C.; tested form: bromide
Method: FIGS. 2A-2D illustrate the cytotoxicity of PET-16 to human tumor cells and its inhibition on E. coli growth. FIG. 2A is a line graph with data obtained from MTT assays of human melanoma cell lines treated with the indicated concentrations of PES or PET-16 for 72 h. The corresponding cell survival is normalized to vehicle (DMSO) treatment. Average and standard deviation (s.d.) from three independent experiments are shown. FIG. 2B are bar graphs of human melanoma (A875) cells and nontransformed human (IMR90) fibroblasts that were treated with DMSO, 10 μM PES or 10 μM PET-16 for 24 h. […] FIG. 2C is a line graph illustrating the growth of E. coli DH5α treated with different concentrations of PES or PET-16 for 6 h at 43° C. Error bars represent the s.d. of four independent experiments. FIG. 2D is a bar graph illustrating the growth of E. coli DH5α treated with DMSO, 30 μM PET-16 or 30 μM TPP for 6 h at 43° C. Error bars represent the s.d. of four independent experiments.
FIGS. 9A-9H illustrate that PET-16 binds directly to ADP-bound HSP70 and is cytotoxic to human tumor cells. FIGS. 9A-9C are ITC assays of the interaction of PET-3C with purified human HSP70-ADP (A), human HSP70-ATP (B) and DnaK-ADP (C) proteins. The data are representative of three independent experiments. […]

[5] = system: human melanoma cell line 1205 Lu; experiment: MTT assay of human melanoma cell line 1205 Lu; conditions: 72 h (FIG. 9D), tested form: bromide
Method: FIGS. 9A-9H illustrate that PET-16 binds directly to ADP-bound HSP70 and is cytotoxic to human tumor cells. FIGS. 9A-9C are ITC assays of the interaction of PET-3C with purified human HSP70-ADP (A), human HSP70-ATP (B) and DnaK-ADP (C) proteins. The data are representative of three independent experiments. FIG. 9D is a line graph of an MTT assay of the human melanoma cell line 1205 Lu treated with the indicated concentrations of PET-16 (---) or PET-3C (-) for 72 h. The corresponding cell survival is normalized to the DMSO-treatment. Average and standard deviation (s.d.) from three independent experiments are shown. FIG. 9E is a line graph illustrating the growth of E. coli DH5α strain treated with different concentrations of PET-16 (black) or PET-3C (gray) for 6 h at 43° C. Error bars represent the s.d. of four independent experiments. FIG. 9F is a bar graph illustrating the growth of E. coli DH5α treated with DMSO, 30 μM PET-16, 30 μM PET-3C or 30 μM TPP for 6 h at 43° C. Error bars represent the s.d. of four independent experiments. FIGS. 9G and 9H are ITC measurement of the interaction of PET-DR with purified human HSP70-ADP (G) and human HSP70-ATP (H) proteins. The data are representative of three independent experiments.

[6] = biological target: ADP-HSP70 P398L (Homo sapiens, UniProt P0DMV8, E110D/P398L); experiment: ITC, mutated full-length ADP-HSP70; type: binding; conditions: ADP-HSP70 mutant P398L, tested form: bromide
Text: (§2) The human stress-inducible HSP70 (residues 1-641 or 386-616 of SEQ ID NO: 2) and E. coli DnaK (residues 1-638, 389-607, or 393-507 of SEQ ID NO: 4) were cloned into the pET25 vector (EMD Millipore Chemicals, Inc., Billerica, Mass., USA) between the NdeI and XhoI restriction sites. The full-length HSP70 and DnaK mutants were constructed by PCR-based site-directed mutagenesis using the QuikChange™ Site-Directed Mutagenesis Kit (Agilent Technologies, Inc., Santa Clara, Calif., USA). All plasmid inserts were verified by DNA sequencing. All HSP70 and DnaK variants were produced with a N-terminal His6-tag in the E. coli BL21 Star (DE3) strain (Invitrogen catalog number C6010-03). The resulting strains were grown at 37° C. in LB medium containing 50 μg/mL of carbenicillin (Sigma-Aldrich Co., St. Louis, Mo., USA). At an OD600 about 0.3 to about 0.5, protein expression was induced with 0.5 mM isopropyl-β-D-thiogalactopyranoside (IPTG), and cells were subsequently grown at 25° C. for about 16 h. Cells were collected by centrifugation and resuspended in the Bugbuster® Master Mix (EMD Millipore Chemicals catalog number 71456-4), supplemented with protease inhibitors, 1 mM diethiothreitol (DTT) and 20 mM imidazole. The His6-tagged fusion proteins were isolated on Ni^2+-chelating resins (Ni-NTA Superflow, Qiagen catalog number 30410) by standard procedures. When necessary, size-exclusion chromatography on a Superdex® 200 or a Superose® 6 10/300 GL columns (GE Healthcare) analytical column pre-equilibrated with 1× Dulbecco's Phosphate Buffered Saline (DPBS—Invitrogen 14190-136), 1 mM Tris-HCl (pH 7.4) or 10 mM Tris-HCl (pH 7) was used as the final purification step. The purified DnaK proteins were dialyzed thoroughly against 1× DPBS with 5 mM DTT at 4° C., for crystallization trials involving the small molecule inhibitor PET-16. For isothermal titration calorimetry studies, all HSP70 and DnaK variants were dialyzed extensively against the buffers as noted below under the section entitled “Isothermal Titration calorimetry Studies”. The dialyzed proteins were subsequently microcentrifugated at 15,000×g for 5 min at 4° C. and aliquots of the soluble proteins were stored at −80° C.
(§3) All ITC experiments were performed using a MicroCal VP-ITC isothermal titration calorimeter (MicroCal). Both full-length HSP70 and DnaK proteins and DnaK (aa 393-507) proteins were prepared in 1 mM Tris-HCl (pH 7.4) buffer containing 3% dimethylsulfoxide (DMSO). The HSP70 (aa 386-616) protein was prepared in buffer containing 3% DMSO and 10 mM Tris-HCl, pH 7. The syringe was loaded with purified protein in either 1 mM Tris-HCl (pH 7.4) buffer containing 3% DMSO or 10 mM Tris-HCl (pH 7) buffer containing 3% DMSO. The sample cell of the calorimeter was loaded with PES, PET-16 or NRLLLTG (SEQ ID NO: 7) prepared in the same buffer. All solutions were degassed for 5 min.
(§4) The titrations involving the full-length purified proteins were performed at 25° C. with injection volumes of 12 μL and a spacing of 300 s. The titrations involving the purified HSP70 (aa 386-616) and DnaK (aa 393-507) were performed at 42° C. with injection volumes of 12 μL and a spacing of 300 s. Heat from the pre-injection was not used during fitting. The data were fit using a one-site binding model available in the Origin® ITC data analysis software (MicroCal Origin® V5.0, MicroCal Software, Northampton, Mass.). Error values obtained from the MicroCal Origin® V5.0 software were averaged and reported.
(§5) The information from crystal structure analysis pointed to particular amino acid residues as potential contact sites for interaction with PET-16. Single point mutants were thereby introduced in the context of a full-length DnaK protein, as well as at the corresponding residues within HSP70; these mutant proteins were analyzed by ITC for ability to bind to PET-16. The DnaK mutations included residues L392D, P396L, L399R, G482D, A503D and […]; those in HSP70 were L394D, P398L, L401R, G484D, N505D and D506A. […]

[7] = biological target: ADP-HSP70 N505D (Homo sapiens, UniProt P0DMV8, E110D/N505D); experiment: ITC, mutated full-length ADP-HSP70; type: binding; conditions: ADP-HSP70 mutant N505D, tested form: bromide
Text: as §2, §3, §4, §5

[8] = biological target: ADP-HSP70 D506A (Homo sapiens, UniProt P0DMV8, D506A/E110D); experiment: ITC, mutated full-length ADP-HSP70; type: binding; conditions: ADP-HSP70 mutant D506A, tested form: bromide
Text: as §2, §3, §4, §5

[9] = biological target: ADP-HSP70 L401R (Homo sapiens, UniProt P0DMV8, E110D/L401R); experiment: ITC, mutated full-length ADP-HSP70; type: binding; conditions: ADP-HSP70 mutant L401R, tested form: bromide
Text: as §2, §3, §4, §5

[10] = biological target: ADP-HSP70 G484D (Homo sapiens, UniProt P0DMV8, E110D/G484D); experiment: ITC, mutated full-length ADP-HSP70; type: binding; conditions: ADP-HSP70 mutant G484D, tested form: bromide
Text: as §2, §3, §4, §5

[11] = biological target: ADP-HSP70 L394D (Homo sapiens, UniProt P0DMV8, E110D/L394D); experiment: ITC, mutated full-length ADP-HSP70; type: binding; conditions: ADP-HSP70 mutant L394D, tested form: bromide
Text: as §2, §3, §4, §5

SMILES	Kd [1]	binding to DnaK [2]	Kd [3]	effect on growth of E. coli [4]	binding to HSP70 ([1]; in words, tested form: bromide)	killing of tumor cells relative to non-transformed cells [5]	interaction with ATP-bound HSP70 ([3]; in words, tested form: bromide)	Kd [6]	Kd [7]	Kd [8]	Kd [9]	Kd [10]	Kd [11]
C(#C[P+](c1ccccc1)(c1ccccc1)c1ccccc1)c1cccc2ccccc12	61 µM	does not exhibit a good binding affinity	191 µM	little effect	–	–	–	–	–	–	–	–	–
C(#Cc1ccccc1)CCC[P+](c1ccccc1)(c1ccccc1)c1ccccc1	4.9 µM	binds much less well	71.7 µM	much less effective	able to bind to HSP70	preferentially kills tumor cells	notably reduced interaction	37.2 µM	90.8 µM	85 µM	60.4 µM	97.9 µM	30.3 µM
